The record followed here is ChEMBL document CHEMBL1123812, “Pyrroloisoquinoline antidepressants. 2. In-depth exploration of structure-activity relationships” (J Med Chem, 1987).

The chains behind the UniProt entries cited, without tags or fusion partners.
UniProt P31652, whole entry: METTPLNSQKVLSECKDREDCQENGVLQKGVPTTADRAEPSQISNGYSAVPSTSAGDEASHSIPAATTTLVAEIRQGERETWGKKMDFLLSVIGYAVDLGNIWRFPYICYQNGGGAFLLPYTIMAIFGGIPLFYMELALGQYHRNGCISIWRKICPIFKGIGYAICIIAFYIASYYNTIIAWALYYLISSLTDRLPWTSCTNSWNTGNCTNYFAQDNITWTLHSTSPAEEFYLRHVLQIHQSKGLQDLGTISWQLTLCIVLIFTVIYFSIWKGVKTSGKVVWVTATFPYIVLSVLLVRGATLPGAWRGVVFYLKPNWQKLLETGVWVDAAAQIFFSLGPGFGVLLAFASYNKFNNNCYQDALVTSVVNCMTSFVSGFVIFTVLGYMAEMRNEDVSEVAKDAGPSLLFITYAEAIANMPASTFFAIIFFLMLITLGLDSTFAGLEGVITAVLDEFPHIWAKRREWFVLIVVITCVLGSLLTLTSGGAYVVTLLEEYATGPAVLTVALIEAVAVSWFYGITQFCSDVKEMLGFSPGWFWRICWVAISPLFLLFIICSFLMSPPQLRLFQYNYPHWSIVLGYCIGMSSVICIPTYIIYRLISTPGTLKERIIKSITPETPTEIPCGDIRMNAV

In the test the target is Sodium-dependent serotonin transporter (Rattus norvegicus, UniProt P31652). Description: Inhibition the uptake of tritiated serotonin (5-HT) by the serotonin transporter SERT in rat synaptosomes. The format is subcellular, Brain.
`FC(F)(F)c1cccc([C@@H]2CN3CCC[C@@H]3c3ccccc32)c1` (stereo in doubt; (+)-37b) showed a Ki of 9.1 nM.

`Clc1ccc([C@@H]2CN3CCC[C@@H]3c3cc(Cl)ccc32)cc1` came in with an inhibition constant (Ki) of 2.9 nM. With `Br.O=[N+]([O-])c1ccc([C@@H]2CN3CCC[C@@H]3c3ccccc32)cc1` the figure was 5.3 nM. Take `c1ccc([C@H]2CN3CC[C@H]3c3ccccc32)cc1`: the Ki turned out to be 428 nM. With `Br.Oc1cccc([C@@H]2CN3CCC[C@@H]3c3ccccc32)c1` the figure was 24.6 nM. With `Br.O[C@@]1(c2ccccc2)CN2CCC[C@H]2c2ccccc21` the figure was 863 nM; with `FC(F)(F)c1cccc([C@@H]2CN3CCC[C@@H]3c3ccccc32)c1` (stereo in doubt; 37b), 23 nM. With `Br.Nc1ccc([C@@H]2CN3CCC[C@@H]3c3ccccc32)cc1` the figure was 44 nM; with `Br.COc1cc([C@@H]2CN3CCC[C@@H]3c3ccccc32)cc(OC)c1OC`, 100 nM. `COc1ccc2c(c1)[C@H]1CCCN1C[C@H]2c1ccccc1` returned an inhibitory constant (Ki) of 4.5 nM.

For `Br.Oc1ccc([C@@H]2CN3CCC[C@@H]3c3ccccc32)cc1O`, the inhibition constant (Ki) came to 33.1 nM.

`Br.Oc1ccc([C@@H]2CN3CCC[C@H]3c3ccccc32)cc1` yielded a Ki of 100 nM. For `Br.Oc1cccc([C@@H]2CN3CCC[C@H]3c3ccccc32)c1` the value was 624 nM; for `CCN1Cc2ccccc2C(c2ccccc2)C1` (configuration not stated), 170 nM. With `FC(F)(F)c1cccc([C@@H]2CN3CCCC3c3cc(Cl)ccc32)c1` (some centres not stated) the figure was 119 nM; with `Br.Oc1ccc([C@@H]2CN3CCC[C@H]3c3ccccc32)cc1O`, 331 nM; with `O=C(Nc1ccccc1)Nc1ccc([C@@H]2CN3CCC[C@@H]3c3ccccc32)cc1`, 151 nM. With `Br.Clc1cccc([C@@H]2CN3CCC[C@@H]3c3ccccc32)c1` the figure was 7.3 nM; with `COc1ccc2c(c1)CN(C)CC2c1ccc(Cl)c(Cl)c1` (configuration not stated) [DICLOFENSINE], 10.3 nM.

For the compound `NC(=O)c1ccc([C@@H]2CN3CCC[C@@H]3c3ccccc32)cc1`, the affinity corresponds to a Ki of 19.1 nM. For the compound `Br.c1ccc2c(c1)[C@@H](C1CCCCC1)CN1CCC[C@@H]21`, the Ki was 145 nM.

The compound `Br.C[C@]1(c2ccccc2)CN2CCC[C@H]2c2ccccc21` displayed an inhibitory constant (Ki) of 32.1 nM. For the compound `Br.c1ccc([C@H]2CN3CCC[C@H]3c3[nH]c4ccccc4c32)cc1`, the inhibition constant Ki amounted to 186 nM. For `Br.COc1ccc([C@@H]2CN3CCC[C@H]3c3ccccc32)cc1` the value was 18.3 nM.

`Clc1ccc([C@@H]2CN3CCC[C@H]3c3ccccc32)cc1Cl` yielded an inhibition constant Ki of 45.7 nM. For `O=C(Nc1ccccc1)Nc1ccc([C@@H]2CN3CCC[C@H]3c3ccccc32)cc1` the value was 100 nM. Regarding `C[C@@]12CCCN1C[C@H](c1ccccc1)c1ccccc12`, the affinity corresponds to a Ki of 750 nM. With `COc1ccc(NC(=O)Nc2ccc([C@@H]3CN4CCC[C@H]4c4ccccc43)cc2)cc1` the figure was 323 nM; with `Fc1cccc(Cl)c1[C@@H]1CN2CCC[C@@H]2c2ccccc21`, 72 nM; with `Br.COc1cccc([C@@H]2CN3CCC[C@H]3c3ccccc32)c1`, 166 nM. As for `COc1cccc2c1[C@H](c1ccccc1)CN1CCC[C@H]21`, the Ki is 455 nM. `Br.Cn1ccc2c1[C@@H](c1ccccc1)CN1CCC[C@@H]21` had an inhibitory constant (Ki) of 111 nM.

Compound `FC(F)(F)c1ccc2c(c1)[C@H]1CCCN1C[C@H]2c1ccccc1` yielded a Ki of 12.3 nM. For the compound `Br.Oc1cc2c(cc1O)[C@H]1CCCN1C[C@H]2c1ccccc1`, the Ki turned out to be 124 nM. With `Clc1ccc([C@@H]2CN3CCC[C@@H]3c3ccccc32)cc1Cl` the figure was 1.8 nM; with `COc1cccc([C@@H]2CN3CCC[C@@H]3c3ccccc32)c1`, 7.2 nM; with `Br.Oc1ccccc1[C@@H]1CN2CCC[C@@H]2c2ccccc21`, 451 nM. In turn, `Br.c1csc([C@H]2CN3CCC[C@H]3c3ccsc32)c1` returned a Ki of 43.3 nM.

Regarding `c1ccc([C@H]2CN3CCCC[C@H]3c3ccccc32)cc1`, the Ki was 415 nM. For `COc1cc2c(cc1OC)[C@H]1CCCN1C[C@H]2c1ccccc1` the value was 1540 nM. With `O[C@]1(c2ccccc2)CN2CCC[C@H]2c2ccccc21` the figure was 292 nM. `FC(F)(F)c1cccc([C@@H]2CN3CCC[C@@H]3c3ccccc32)c1` (stereo in doubt; (-)-37b) registered a Ki of 2920 nM. With `C[C@@]12CCCN1C[C@H](c1ccc(Cl)cc1)c1ccccc12` the figure was 68 nM.

Regarding `Clc1ccc([C@@H]2CN3CCC[C@H]3c3cc(Cl)ccc32)cc1`, the inhibitory constant (Ki) was 234 nM. As to `Br.COc1ccc([C@@H]2CN3CCC[C@@H]3c3ccccc32)cc1OC`, the affinity, expressed as Ki, was 18.1 nM. The compound `c1ccc([C@@H]2CN3CC[C@H]3c3ccccc32)cc1` yielded an inhibition constant (Ki) of 2190 nM.

Compound `Br.COc1ccc([C@@H]2CN3CCC[C@@H]3c3ccccc32)cc1` had an inhibitory constant (Ki) of 1.7 nM. For `Fc1ccc([C@@H]2CN3CCC[C@@H]3c3ccccc32)cc1` the value was 8.5 nM. For `Br.c1ccc([C@H]2CN3CCC[C@H]3c3ccsc32)cc1` the value was 37.9 nM; for `FC(F)(F)c1ccc([C@@H]2CN3CCC[C@@H]3c3ccccc32)cc1`, 4.9 nM.

Regarding `Clc1cccc2c1[C@H](c1ccccc1)CN1CCC[C@H]21`, the Ki came to 298 nM. Regarding `Br.Brc1ccccc1[C@@H]1CN2CCC[C@@H]2c2ccccc21`, the inhibitory constant (Ki) amounted to 5.5 nM. With `Br.Fc1ccc([C@@H]2CN3CCC[C@@H]3c3cc(F)ccc32)cc1` the figure was 4.4 nM. Take `Br.Clc1ccc2c(c1)[C@H]1CCCN1C[C@H]2c1ccccc1`: the Ki was 4.8 nM. Regarding `CCCCc1ccc([C@@H]2CN3CCC[C@@H]3c3ccccc32)cc1`, the Ki was found to be 110 nM. For `Cc1ccccc1[C@@H]1CN2CCC[C@@H]2c2ccccc21` the value was 23.1 nM; for `Br.Oc1ccc([C@@H]2CN3CCC[C@@H]3c3ccccc32)cc1`, 3.2 nM.
